{"source": "patent US10442845B2", "about": "“Interferon analogs” (BiOrion Technologies B.V., priority 2009, dated 2019)", "tested_on": "Human Hepatocytes (HepG2)", "test": "ICAM1 expression in human hepatocytes (HepG2)", "type": "cell-based", "conditions": "1 ug/ml, 24 hrs, 18srRNA housekeeping control", "protocol": "Human Hepatocytes (HepG2) were plated in 12 well plates (1×10^5 cells/well). The cells were grown overnight in 5%/37° C./CO2 incubator. Subsequently, cells were incubated with medium, mouse IFNγ (1 ug/ml), Human IFNγ (1 ug/ml), mouse IFNγ derived Lac-HSA-PEG-IFNγ (1 ug/ml), Lac-HSA or Lac-HSA-PEG-IFNγ (1 ug/ml) after 2 hrs of blocking with Lac-HSA. After 24 hrs of incubation, cells were lysed, RNA was isolated and reverse transcribed. The cDNA was used for the analysis of Inter-Cellular Adhesion Molecule 1 (ICAM1) expression, which is known to be induced in response to IFNγ. 18srRNA was used a housekeeping control."}
{"substance": "Lac-HSA: 25 lactose molecules coupled to human serum albumin [reference compound]", "values": [{"measurement": "ICAM1 expression", "result": "neither mouse truncated IFNγ nor Lac-HSA induced ICAM1 expression"}]}
